Assay results published in patent US8877779B2 (priority 2007, dated 2014).

These molecules were tested against human ORL-1 receptor (Homo sapiens, UniProt P41146) (assay: ORL-1 receptor-binding test ([3H]-nociceptin)). Conditions: read-out: Affinity Ki (nM) ORL-1, membrane of HEK293 cell expressing human ORL-1 receptor.
With `CNC(=O)Cn1c(=O)n(C2CCN(C3CCCc4ccccc43)CC2)c2ccccc21` (stereo not drawn) the Ki was < 10 nM. `CNC(=O)Cn1c(=O)n(C2CCN(C3Cc4ccc(Cl)c5cccc3c45)CC2)c2ccccc21` (stereo not drawn) was tested, and the Ki was < 10 nM. In the case of `CNC(=O)Cn1c(=O)n(C2CCN([C@@H]3Cc4ccc(F)c5cccc3c45)CC2)c2ccccc21`, the Ki is reported as < 10 nM. In the case of `CNC(=O)Cn1c(=O)n(C2CCN([C@@H]3CCCc4ccccc43)CC2)c2ccccc21`, the Ki is reported as < 10 nM. In the case of `CNC(=O)Cn1c(=O)n(C2CCN(C3CCc4ccccc43)CC2)c2ccccc21` (stereo not drawn), the Ki is reported as < 10 nM. In the case of `CNC(=O)Cn1c(=O)n(C2CCN(C3Cc4c(Cl)ccc5cccc3c45)CC2)c2ccccc21` (stereo not drawn), the Ki is reported as < 10 nM.
